Source: patent publication US6534524B1, “Indazole compounds and pharmaceutical compositions for inhibiting protein kinases, and methods for their use” (Agouron Pharmaceuticals, Inc., priority 1999, dated 2003)

Assay: Determination of inhibitor concentration in mouse plasma after intraperitoneal and oral dosing
Format: in vivo
Conditions: vehicle PEG400:H2O pH 2.3 30:70

SMILES	plasma half-life (T1/2) (IP, 25 mg/kg) [h]	plasma half-life (T1/2) (PO, 50 mg/kg) [h]	Cmax (female, IP, 25 mg/kg) [ng/mL]
O=C(Nc1cccc(Oc2ccc3c(/C=C/c4c[nH]cn4)n[nH]c3c2)c1)c1ccccc1 [Example 32(a), 6-[3-Benzamidophenoxy]-3-E-[2-(1H-imidazol-4-yl)ethenyl]-1H-indazole]	3.7	1.1	–
CNC(=O)c1ccccc1Sc1ccc2c(/C=C/c3ccccn3)n[nH]c2c1 [Example 33(a), 6-[2-(methylcarbamoyl)phenylsulfanyl]-3-E-[2-(pyridin-2-yl)ethenyl]indazole]	1.1	0.8	–
O=C(NCc1cccc(F)c1)c1ccccc1Sc1ccc2c(/C=C/c3ccccn3)n[nH]c2c1 [Example 35(ff)]	1.7	–	–
CCn1nc(C)cc1C(=O)Nc1cc(C(=O)c2ccc3c(/C=C/c4ccccn4)n[nH]c3c2)ccc1C [Example 41(ee), 6-[3-((1-Ethyl-3-methyl-1H-pyrazol-5-yl)carboxanido)-4-methylbenzoyl]-3-E-[2-(pyridin-2-yl)ethenyl]-1H-indazole]	–	–	> 5000
